Data as given in US20260116920A1, “HUMAN TRANSFERRIN RECEPTOR BINDING PEPTIDE” (PEPTIDREAM INC., priority 2021, published 2026).

Sequences of proteins named here, by UniProt entry; tags and fusion partners are left off. Residues count along the entry.
UniProt P02786, 89-760 limits assumed: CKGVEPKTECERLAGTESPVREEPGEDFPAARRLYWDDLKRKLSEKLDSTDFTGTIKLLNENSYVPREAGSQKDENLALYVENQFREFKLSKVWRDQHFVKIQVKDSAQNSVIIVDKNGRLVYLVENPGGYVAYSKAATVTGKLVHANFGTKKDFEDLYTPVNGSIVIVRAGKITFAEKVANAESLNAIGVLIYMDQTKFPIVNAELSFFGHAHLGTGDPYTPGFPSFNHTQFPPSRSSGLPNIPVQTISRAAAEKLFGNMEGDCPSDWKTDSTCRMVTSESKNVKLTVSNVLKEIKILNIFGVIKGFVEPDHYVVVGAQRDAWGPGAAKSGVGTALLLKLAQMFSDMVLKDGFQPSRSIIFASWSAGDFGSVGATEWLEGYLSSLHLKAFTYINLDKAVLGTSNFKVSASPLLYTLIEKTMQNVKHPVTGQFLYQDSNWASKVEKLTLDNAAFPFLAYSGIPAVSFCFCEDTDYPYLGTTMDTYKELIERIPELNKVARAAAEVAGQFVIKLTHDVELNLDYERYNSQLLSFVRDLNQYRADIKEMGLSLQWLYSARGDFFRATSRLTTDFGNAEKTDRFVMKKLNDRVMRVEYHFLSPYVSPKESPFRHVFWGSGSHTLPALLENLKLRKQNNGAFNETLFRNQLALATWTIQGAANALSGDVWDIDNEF

Target: T1, human transferrin receptor (hTfR) (Homo sapiens, UniProt P02786)
T1 construct: made in house
Experiment: Evaluation of molecular interaction between transferrin receptor (hTfR) and peptide using surface plasmon resonance (SPR)
Assay type: binding
Settings: KD class of peptide with linker binding to hTfR, by SPR (TABLE 5); read-out: SPR
How it was run: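 Binding kinetics of peptides to immobilized recombinant human TfR dimer were measured by SPR at 5–100 nM in a single-cycle format, with KD obtained from curve fitting.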

| SMILES | Kd [nM] |
| --- | --- |
| CC[C@H](C)[C@@H]1NC(=O)[C@H](Cc2ccc(OCC(=O)O)cc2)NC(=O)[C@H](Cc2ccc(O)cc2)NC(=O)[C@H](CC(N)=O)NC(=O)[C@H](Cc2cn(CC(=O)O)c3ccccc23)NC(=O)[C@H](C(C)C)NC(=O)[C@H](Cc2cccc(Cl)c2)N(C)C(=O)[C@H](C(C)C)NC(=O)[C@H](C)NC(=O)CSC[C@@H](C(=O)NCC(=O)N[C@H](CCC(=O)O)C(=O)N[C@H](CO)C(=O)N[C@H](CO)C(=O)N[C@H](CO)C(=O)N[C@H](CO)C(=O)N[C@@H](CCCCNC(C)=O)C(N)=O)NC(=O)[C@H](Cc2ccc(O)cc2)N(C)C(=O)[C@H](Cc2ccccc2)NC(=O)[C@H](CCCNC(=N)N)NC(=O)[C@H](CCCNC(=N)N)NC(=O)[C@H]([C@@H](C)CC)NC1=O [compound 315] | 1 to 100 |
| CC[C@H](C)[C@@H]1NC(=O)[C@H](Cc2ccc(OCC(=O)O)cc2)NC(=O)[C@H](Cc2ccc(O)cc2)NC(=O)[C@H](CC(N)=O)NC(=O)[C@H](Cc2cn(CC(=O)O)c3ccccc23)NC(=O)[C@H](C(C)C)NC(=O)[C@H](Cc2cccc(Cl)c2)N(C)C(=O)[C@H](C(C)C)NC(=O)[C@H](C)NC(=O)CSC[C@@H](C(=O)NCC(=O)N[C@H](CO)C(=O)N[C@H](CO)C(=O)N[C@H](CCC(=O)O)C(=O)N[C@H](CO)C(=O)N[C@H](CO)C(=O)N[C@@H](CCCCNC(C)=O)C(N)=O)NC(=O)[C@H](Cc2ccc(O)cc2)N(C)C(=O)[C@H](Cc2ccccc2)NC(=O)[C@H](CCCNC(=N)N)NC(=O)[C@H](CCCNC(=N)N)NC(=O)[C@H]([C@@H](C)CC)NC1=O [compound 316] | 1 to 100 |
| CC[C@H](C)[C@@H]1NC(=O)[C@H](Cc2ccc(OCC(=O)O)cc2)NC(=O)[C@H](Cc2ccc(O)cc2)NC(=O)[C@H](CC(N)=O)NC(=O)[C@H](Cc2cn(CC(=O)O)c3ccccc23)NC(=O)[C@H](C(C)C)NC(=O)[C@H](Cc2cccc(Cl)c2)N(C)C(=O)[C@H](C(C)C)NC(=O)[C@H](C)NC(=O)CSC[C@@H](C(=O)NCC(=O)N[C@H](CO)C(=O)N[C@H](CO)C(=O)N[C@H](CO)C(=O)N[C@H](CO)C(=O)N[C@H](CCC(=O)O)C(=O)N[C@@H](CCCCNC(C)=O)C(N)=O)NC(=O)[C@H](Cc2ccc(O)cc2)N(C)C(=O)[C@H](Cc2ccccc2)NC(=O)[C@H](CCCNC(=N)N)NC(=O)[C@H](CCCNC(=N)N)NC(=O)[C@H]([C@@H](C)CC)NC1=O [compound 317] | < 1 |
| CC[C@H](C)[C@@H]1NC(=O)[C@H](Cc2ccc(OCC(=O)O)cc2)NC(=O)[C@H](Cc2ccc(O)cc2)NC(=O)[C@H](CC(N)=O)NC(=O)[C@H](Cc2cn(CC(=O)O)c3ccccc23)NC(=O)[C@H](C(C)C)NC(=O)[C@H](Cc2cccc(Cl)c2)N(C)C(=O)[C@H](C(C)C)NC(=O)[C@H](C)NC(=O)CSC[C@@H](C(=O)NCC(=O)N[C@H](CCC(=O)O)C(=O)N[C@H](CO)C(=O)N[C@H](CO)C(=O)N[C@H](CO)C(=O)N[C@H](CCC(=O)O)C(=O)N[C@@H](CCCCNC(C)=O)C(N)=O)NC(=O)[C@H](Cc2ccc(O)cc2)N(C)C(=O)[C@H](Cc2ccccc2)NC(=O)[C@H](CCCNC(=N)N)NC(=O)[C@H](CCCNC(=N)N)NC(=O)[C@H]([C@@H](C)CC)NC1=O [compound 318] | 1 to 100 |
| CC[C@H](C)[C@@H]1NC(=O)[C@H](Cc2ccc(OCC(=O)O)cc2)NC(=O)[C@H](Cc2ccc(O)cc2)NC(=O)[C@H](CC(N)=O)NC(=O)[C@H](Cc2cn(CC(=O)O)c3ccccc23)NC(=O)[C@H](C(C)C)NC(=O)[C@H](Cc2cccc(Cl)c2)N(C)C(=O)[C@H](C(C)C)NC(=O)[C@H](C)NC(=O)CSC[C@@H](C(=O)NCC(=O)N[C@H](CCC(=O)O)C(=O)N[C@H](CCC(=O)O)C(=O)N[C@H](CO)C(=O)N[C@H](CO)C(=O)N[C@H](CO)C(=O)N[C@@H](CCCCNC(C)=O)C(N)=O)NC(=O)[C@H](Cc2ccc(O)cc2)N(C)C(=O)[C@H](Cc2ccccc2)NC(=O)[C@H](CCCNC(=N)N)NC(=O)[C@H](CCCNC(=N)N)NC(=O)[C@H]([C@@H](C)CC)NC1=O [compound 319] | 1 to 100 |
| CC[C@H](C)[C@@H]1NC(=O)[C@H](Cc2ccc(OCC(=O)O)cc2)NC(=O)[C@H](Cc2ccc(O)cc2)NC(=O)[C@H](CC(N)=O)NC(=O)[C@H](Cc2cn(CC(=O)O)c3ccccc23)NC(=O)[C@H](C(C)C)NC(=O)[C@H](Cc2cccc(Cl)c2)N(C)C(=O)[C@H](C(C)C)NC(=O)[C@H](C)NC(=O)CSC[C@@H](C(=O)NCC(=O)N[C@H](CO)C(=O)N[C@H](CCC(=O)O)C(=O)N[C@H](CCC(=O)O)C(=O)N[C@H](CO)C(=O)N[C@H](CO)C(=O)N[C@@H](CCCCNC(C)=O)C(N)=O)NC(=O)[C@H](Cc2ccc(O)cc2)N(C)C(=O)[C@H](Cc2ccccc2)NC(=O)[C@H](CCCNC(=N)N)NC(=O)[C@H](CCCNC(=N)N)NC(=O)[C@H]([C@@H](C)CC)NC1=O [compound 320] | 1 to 100 |
| CC[C@H](C)[C@@H]1NC(=O)[C@H](Cc2ccc(OCC(=O)O)cc2)NC(=O)[C@H](Cc2ccc(O)cc2)NC(=O)[C@H](CC(N)=O)NC(=O)[C@H](Cc2cn(CC(=O)O)c3ccccc23)NC(=O)[C@H](C(C)C)NC(=O)[C@H](Cc2cccc(Cl)c2)N(C)C(=O)[C@H](C(C)C)NC(=O)[C@H](C)NC(=O)CSC[C@@H](C(=O)NCC(=O)N[C@H](CO)C(=O)N[C@H](CCC(=O)O)C(=O)N[C@H](CO)C(=O)N[C@H](CO)C(=O)N[C@H](CCC(=O)O)C(=O)N[C@@H](CCCCNC(C)=O)C(N)=O)NC(=O)[C@H](Cc2ccc(O)cc2)N(C)C(=O)[C@H](Cc2ccccc2)NC(=O)[C@H](CCCNC(=N)N)NC(=O)[C@H](CCCNC(=N)N)NC(=O)[C@H]([C@@H](C)CC)NC1=O [compound 321] | 1 to 100 |

Continued, values first:

| Kd [nM] | SMILES |
| --- | --- |
| 1 to 100 | CC[C@H](C)[C@@H]1NC(=O)[C@H](Cc2ccc(OCC(=O)O)cc2)NC(=O)[C@H](Cc2ccc(O)cc2)NC(=O)[C@H](CC(N)=O)NC(=O)[C@H](Cc2cn(CC(=O)O)c3ccccc23)NC(=O)[C@H](C(C)C)NC(=O)[C@H](Cc2cccc(Cl)c2)N(C)C(=O)[C@H](C(C)C)NC(=O)[C@H](C)NC(=O)CSC[C@@H](C(=O)NCC(=O)N[C@H](CCC(=O)O)C(=O)N[C@H](CO)C(=O)N[C@H](CCC(=O)O)C(=O)N[C@H](CO)C(=O)N[C@H](CO)C(=O)N[C@@H](CCCCNC(C)=O)C(N)=O)NC(=O)[C@H](Cc2ccc(O)cc2)N(C)C(=O)[C@H](Cc2ccccc2)NC(=O)[C@H](CCCNC(=N)N)NC(=O)[C@H](CCCNC(=N)N)NC(=O)[C@H]([C@@H](C)CC)NC1=O [compound 322] |
| 1 to 100 | CC[C@H](C)[C@@H]1NC(=O)[C@H](Cc2ccc(OCC(=O)O)cc2)NC(=O)[C@H](Cc2ccc(O)cc2)NC(=O)[C@H](CC(N)=O)NC(=O)[C@H](Cc2cn(CC(=O)O)c3ccccc23)NC(=O)[C@H](C(C)C)NC(=O)[C@H](Cc2cccc(Cl)c2)N(C)C(=O)[C@H](C(C)C)NC(=O)[C@H](C)NC(=O)CSC[C@@H](C(=O)NCC(=O)N[C@H](CO)C(=O)N[C@H](CCC(=O)O)C(=O)N[C@H](CO)C(=O)N[C@H](CO)C(=O)N[C@H](CO)C(=O)N[C@@H](CCCCNC(C)=O)C(N)=O)NC(=O)[C@H](Cc2ccc(O)cc2)N(C)C(=O)[C@H](Cc2ccccc2)NC(=O)[C@H](CCCNC(=N)N)NC(=O)[C@H](CCCNC(=N)N)NC(=O)[C@H]([C@@H](C)CC)NC1=O [compound 323] |
| 1 to 100 | CC[C@H](C)[C@@H]1NC(=O)[C@H](Cc2ccc(OCC(=O)O)cc2)NC(=O)[C@H](Cc2ccc(O)cc2)NC(=O)[C@H](CC(N)=O)NC(=O)[C@H](Cc2cn(CC(=O)O)c3ccccc23)NC(=O)[C@H](C(C)C)NC(=O)[C@H](Cc2cccc(Cl)c2)N(C)C(=O)[C@H](C(C)C)NC(=O)[C@H](C)NC(=O)CSC[C@@H](C(=O)NCC(=O)N[C@H](CO)C(=O)N[C@H](CO)C(=O)N[C@H](CO)C(=O)N[C@H](CCC(=O)O)C(=O)N[C@H](CO)C(=O)N[C@@H](CCCCNC(C)=O)C(N)=O)NC(=O)[C@H](Cc2ccc(O)cc2)N(C)C(=O)[C@H](Cc2ccccc2)NC(=O)[C@H](CCCNC(=N)N)NC(=O)[C@H](CCCNC(=N)N)NC(=O)[C@H]([C@@H](C)CC)NC1=O [compound 324] |
| 1 to 100 | CC[C@H](C)[C@@H]1NC(=O)[C@H](Cc2ccc(O)cc2)NC(=O)[C@H](Cc2ccc(O)cc2)NC(=O)[C@H](CC(N)=O)NC(=O)[C@H](Cc2c[nH]c3ccccc23)NC(=O)[C@H](C(C)C)NC(=O)[C@H](Cc2ccccc2)N(C)C(=O)[C@H](C(C)C)NC(=O)[C@H](C)NC(=O)CSC[C@@H](C(=O)NCC(=O)N[C@H](CCC(=O)O)C(=O)N[C@H](CCC(=O)O)C(=O)N[C@H](CCC(=O)O)C(=O)N[C@H](CO)C(=O)N[C@H](CO)C(=O)N[C@@H](CCCCN)C(N)=O)NC(=O)[C@H](Cc2ccc(O)cc2)N(C)C(=O)[C@H](Cc2ccc(O)cc2)NC(=O)[C@H](CCCNC(=N)N)NC(=O)[C@H](CCCNC(=N)N)NC(=O)[C@H]([C@@H](C)CC)NC1=O [compound 325] |
| 1 to 100 | CC[C@H](C)[C@@H]1NC(=O)[C@H](Cc2ccc(OCC(=O)O)cc2)NC(=O)[C@H](Cc2ccc(O)cc2)NC(=O)[C@H](CC(N)=O)NC(=O)[C@H](Cc2cn(CC(=O)O)c3ccccc23)NC(=O)[C@H](C(C)C)NC(=O)[C@H](Cc2cccc(Cl)c2)N(C)C(=O)[C@H](C(C)C)NC(=O)[C@H](C)NC(=O)CSC[C@@H](C(=O)NCC(=O)N[C@H](CO)C(=O)N[C@H](CCC(=O)O)C(=O)N[C@H](CCC(=O)O)C(=O)N[C@H](CCC(=O)O)C(=O)N[C@H](CO)C(=O)N[C@@H](CCCCNC(C)=O)C(N)=O)NC(=O)[C@H](Cc2ccc(O)cc2)N(C)C(=O)[C@H](Cc2ccccc2)NC(=O)[C@H](CCCNC(=N)N)NC(=O)[C@H](CCCNC(=N)N)NC(=O)[C@H]([C@@H](C)CC)NC1=O [compound 326] |
| 1 to 100 | CC[C@H](C)[C@@H]1NC(=O)[C@H](Cc2ccc(OCC(=O)O)cc2)NC(=O)[C@H](Cc2ccc(O)cc2)NC(=O)[C@H](CC(N)=O)NC(=O)[C@H](Cc2cn(CC(=O)O)c3ccccc23)NC(=O)[C@H](C(C)C)NC(=O)[C@H](Cc2cccc(Cl)c2)N(C)C(=O)[C@H](C(C)C)NC(=O)[C@H](C)NC(=O)CSC[C@@H](C(=O)NCC(=O)N[C@H](CO)C(=O)N[C@H](CO)C(=O)N[C@H](CCC(=O)O)C(=O)N[C@H](CCC(=O)O)C(=O)N[C@H](CCC(=O)O)C(=O)N[C@@H](CCCCNC(C)=O)C(N)=O)NC(=O)[C@H](Cc2ccc(O)cc2)N(C)C(=O)[C@H](Cc2ccccc2)NC(=O)[C@H](CCCNC(=N)N)NC(=O)[C@H](CCCNC(=N)N)NC(=O)[C@H]([C@@H](C)CC)NC1=O [compound 327] |
